Like-named read-outs stand apart in the source and are kept apart here.
Molecular target: T1, PPAR-gamma (Homo sapiens, UniProt P37231)
T1 construct: purchased Invitrogen
Test: Polar Screen PPAR Competitive Assay (fluorescence polarization ligand binding)

Amino acid sequences for entries named in this document (tags omitted). Residues count along the entry.
UniProt P37231, 238-503 limits assumed: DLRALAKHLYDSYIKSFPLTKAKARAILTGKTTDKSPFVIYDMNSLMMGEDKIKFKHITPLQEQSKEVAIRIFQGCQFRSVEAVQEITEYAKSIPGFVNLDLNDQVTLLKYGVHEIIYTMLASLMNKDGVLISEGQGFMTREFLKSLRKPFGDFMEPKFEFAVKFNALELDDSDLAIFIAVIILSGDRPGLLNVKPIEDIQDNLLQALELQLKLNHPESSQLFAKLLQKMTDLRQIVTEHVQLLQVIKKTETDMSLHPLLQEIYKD

Substance | EC50 (Table 1, result in words, *tested to a concentration of 0.1 M) | EC50 (Table 1, tested substances, read-out: EC50) [µM]
Alliin | does not bind* | –
Catechin | – | 85
